{"source": "paper PMC5161585", "about": "(Nature, 2016)", "system": "Oprm1−/− mice", "test": "Hotplate assay in μOR knockout mice", "type": "in vivo, mouse", "details": "morphine 10 mg/kg, PZM21 20 mg/kg, 30 min"}
{"smiles": "CN1CC[C@]23c4c5ccc(O)c4O[C@H]2[C@@H](O)C=C[C@H]3[C@H]1C5", "note": "[morphine, reference compound]", "values": [{"measurement": "analgesic response in hotplate assay in μOR knockout mice", "value": "ablates all analgesic responses"}]}
